Laboratory results from patent US6673364B1, “Liposome having an exchangeable component” (The University of British Columbia, priority 1995, dated 2004).
Entries after “also recorded” stand apart in the source; their conditions may differ.

Assay: 31P-NMR phase preference of equimolar DOPE:cholesterol mixtures with bilayer stabilizing component (BSC)
Format: physicochemical
Details: for bilayer stabilizing ability: BSC 5 mol %; for bilayer to HII transition temperature: BSC 5 mol % (1:1:0.05)
Method: Lipid components were mixed in 1-2 ml of benzene:methanol (95:5, v/v) and then lyophilized for a minimum of 5 hours at a pressure of <60 millitorr using a Virtis lyophilizer equipped with a liquid N2 trap. Multilamellar vesicles (MLVs) were prepared by hydrating the dry lipid mixtures in 150 mM NaCl, buffered with 10 mM Hepes-NaOH, pH 7.4 (Hepes-buffered saline, HBS). Mixtures were vortexed to assist hydration. To produce large unilamellar vesicles (LUVs), MLVs were first frozen in liquid nitrogen and then thawed at 30° C. five times. LUVs were produced by extrusion of the frozen and thawed MLVs ten times through 2 stacked polycarbonate filters of 100 nm pore size at 30° C. and pressures of 200-500 psi (Hope, et al., Biochim. Biophys. Acta, 812:55-65 (1985)).
^31P-NMR spectra were obtained using a temperature controlled Bruker MSL200 spectrometer operating at 81 MHz. Free induction decays were accumulated for 2000 transients using a 4 μs, 90° pulse, 1 sec. interpulse delay, 20 KHz sweep width and Waltz decoupling. A 50 Hz line broadening was applied to the data prior to Fourier transformation. Samples were allowed to equilibrate at the indicated temperature for 30 minutes prior to data accumulation. Lipid concentrations of 30-70 mM were used.

| Substance | bilayer stabilizing ability | bilayer to HII transition temperature | bilayer to hexagonal (HII) phase transition (BSC 9 mol % (1:1:0.1), spectra 0-60° C.) | phase preference (31P-NMR) (BSC 20 mol % of phospholipid (1:1:0.25)) |
| --- | --- | --- | --- | --- |
| poly-(ethyleneglycol)5000 conjugated to DOPE [DOPE-PEG5000] | marked increase in bilayer stability | approximately 30 °C | – | – |
| poly-(ethyleneglycol)2000 conjugated to DOPE [DOPE-PEG2000] | limited bilayer stabilizing ability | approximately 10 °C | 40-50 °C | almost exclusively bilayer; also recorded: stabilized in the bilayer conformation |
